Assay: Binding affinity to paclitaxel binding site of microtubule

Row | Ka [×10⁸ /M] | Structure (SMILES)
1 | 4.4 | COc1cccc(C(=O)O[C@H]2[C@@H]3[C@]4(OC(C)=O)CO[C@@H]4C[C@H](OC(=O)[C@H](C)NC(=O)c4ccc(-c5c6ccc(=O)cc-6oc6cc(O)ccc56)c(C(=O)O)c4)[C@@]3(C)C(=O)[C@H](OC(C)=O)C3=C(C)[C@@H](OC(=O)[C@H](O)[C@@H](NC(=O)c4ccccc4)c4ccccc4)C[C@]2(O)C3(C)C)c1
2 | 6.8 | COc1cccc(C(=O)O[C@H]2[C@@H]3[C@]4(OC(C)=O)CO[C@@H]4C[C@H](OC(=O)[C@H](C)NC(=O)c4ccc(-c5c6cc(F)c(=O)cc-6oc6cc(O)c(F)cc56)c(C(=O)O)c4)[C@@]3(C)C(=O)[C@H](OC(C)=O)C3=C(C)[C@@H](OC(=O)[C@H](O)[C@@H](NC(=O)c4ccccc4)c4ccccc4)C[C@]2(O)C3(C)C)c1
3 | 12 | C/C=C(\C)C(=O)N[C@@H](c1ccccc1)[C@@H](O)C(=O)O[C@H]1C[C@@]2(O)[C@@H](OC(=O)c3cccc(N=[N+]=[N-])c3)[C@@H]3[C@]4(OC(C)=O)CO[C@@H]4C[C@H](OC(=O)[C@H](C)NC(=O)c4ccc(-c5c6ccc(=O)cc-6oc6cc(O)ccc56)c(C(=O)O)c4)[C@@]3(C)C(=O)[C@H](OC(C)=O)C(=C1C)C2(C)C

Reference: ChEMBL document CHEMBL1143357, “Synthesis and biological activities of high affinity taxane-based fluorescent probes” (Bioorg Med Chem Lett, 2009)
